Data taken from patent US6319894A, “Complexes and combinations of fetuin with therapeutic agents” (The Picower Institute for Medical Research, priority 1997, dated 2001).

System: LPS-stimulated RAW 264.7 cells (inducible nitric oxide synthase, iNOS)
Test: NO / nitrite production (Griess reaction, iNOS activity) in LPS-stimulated RAW 264.7 cells
Type: cell-based, murine
Details: glycoprotein 2.5 μg/ml; CNI-1493 2.0 μM; FIG. 13
Procedure: Typically, cultures were maintained in 150-mm plates with 30 mls culture medium until they reached 80-90% confluence, and were then subjected to different experimental protocols. […] The incubation was continued for another 24 hours before subjecting the cultures to further experiments.
LPS (endotoxin) was sonicated for 10 minutes and added to culture media to achieve the desired final concentration, typically 100 ng/ml.
Inducible nitric oxide synthase activity (iNOS) was assayed indirectly by measuring NO^2- production. NO^2- was measured by a colorimetric assay based on the Griess reaction. […] The optical density was read at 560 nm after 10 min, and NO^2- concentration was determined with reference to a standard curve by using concentrations of 1.5 to 50 μM sodium nitrite in culture medium.

In the case of “albumin: listed among other glycoproteins, net negatively charged at physiological pH”, the “augmentation of CNI-1493 activity (nitrite production)” value is reported as “only fetuin was effective in augmenting CNI-1493 therapeutic activity”.
